# Measurements taken from US9029377B2, “Platelet-activating factor receptor antagonists” (Merck Sharp & Dohme Corp., priority 2009, dated 2015).
# Sequences of proteins named here, by UniProt entry; tags and fusion partners are left off. A change or cut given only in a name is not applied to a line headed by its entry.
# UniProt P25105: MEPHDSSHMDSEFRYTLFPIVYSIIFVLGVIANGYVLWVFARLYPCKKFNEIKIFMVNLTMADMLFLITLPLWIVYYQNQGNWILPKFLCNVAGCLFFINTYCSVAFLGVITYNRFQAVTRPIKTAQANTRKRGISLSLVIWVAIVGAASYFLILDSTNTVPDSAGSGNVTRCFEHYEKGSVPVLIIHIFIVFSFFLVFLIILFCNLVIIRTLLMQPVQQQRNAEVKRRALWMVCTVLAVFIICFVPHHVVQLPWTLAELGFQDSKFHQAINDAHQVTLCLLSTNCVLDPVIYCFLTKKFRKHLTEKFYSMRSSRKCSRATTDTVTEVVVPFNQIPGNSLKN
# Molecular target: PAFR (Homo sapiens, UniProt P25105)
# Assay: PAF Binding Assay (PAFR binding)
row,IC50 [nM],Molecule
1,2.1,"O=S(=O)(N[C@H]1CCC[C@@H](n2cnnc2)C1)c1cc(-c2cccc(OC(F)(F)F)c2)cc(C(F)(F)F)c1 [Compound 3Au, N-[(1S,3R)-3-(4H-1,2,4-triazol-4-yl)cyclohexyl]-3′-(trifluoromethoxy)-5-(trifluoromethyl)biphenyl-3-sulfonamide]"
2,2.1,"Cc1ccc2c(F)ccc(-c3cc(C(F)(F)F)cc(S(=O)(=O)N[C@H]4CCC[C@@H](n5cnnc5)C4)c3)c2n1 [Compound 3Aap, 3-(5-fluoro-2-methylquinolin-8-yl)-N-[(1S,3R)-3-(4H-1,2,4-triazol-4-yl)cyclohexyl]-5-(trifluoromethyl)benzenesulfonamide]"

row,Molecule,IC50 [nM]
1,"3-ethyl-N-[(1S,3R)-3-(4H-1,2,4-triazol-4-yl)cyclohexyl]trifluorethoxy)biphenyl-4-sulfonamide [Compound 2Aah]",2.1
